Target: Glycogen synthase kinase-3 alpha (Homo sapiens, UniProt P49840)

Amino acid sequences for entries named in this document (tags omitted). A change or cut given only in a name is not applied to a line headed by its entry.
UniProt P49840: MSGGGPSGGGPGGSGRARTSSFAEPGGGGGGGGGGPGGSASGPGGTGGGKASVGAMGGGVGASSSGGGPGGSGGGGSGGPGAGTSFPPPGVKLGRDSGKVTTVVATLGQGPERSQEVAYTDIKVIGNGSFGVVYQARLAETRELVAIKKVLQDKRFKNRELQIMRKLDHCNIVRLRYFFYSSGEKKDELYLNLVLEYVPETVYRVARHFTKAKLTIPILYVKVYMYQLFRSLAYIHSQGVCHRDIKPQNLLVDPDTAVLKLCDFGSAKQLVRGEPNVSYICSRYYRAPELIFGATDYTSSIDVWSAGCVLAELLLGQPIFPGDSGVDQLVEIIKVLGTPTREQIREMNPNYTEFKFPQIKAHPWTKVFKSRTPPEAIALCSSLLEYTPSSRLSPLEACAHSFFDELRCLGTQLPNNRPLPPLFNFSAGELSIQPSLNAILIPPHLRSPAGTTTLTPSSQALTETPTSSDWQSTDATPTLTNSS

CCCCc1c(-c2ccc(O)cc2)[nH]c2nccnc12 [ALOISINE A]
IC50: 0.5 µM

— ChEMBL document CHEMBL1145099, “Aloisines, a new family of CDK/GSK-3 inhibitors. SAR study, crystal structure in complex with CDK2, enzyme selectivity, and cellular effects” (J Med Chem, 2003)
